Binding of CDR-mutated scFvs to a peptide of the spike HR2 region

The measurements come from Li et al. 2023 (doi:10.1038/s41467-023-39022-2) through the FLAb antibody collection.

Target peptide (SARS-CoV-2 spike, HR2 region): PDVDLGDISGINAS

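The parent was found by panning a naive human phage display library on the peptide. This is the validation round: designs drawn from the data on random variants, tested in the same kind of assay. Several design methods are mixed in this list. In AlphaSeq, yeast of one mating type display the scFv and yeast of the other type display the target. Binding brings cells together so that they mate, and sequencing counts the barcode pairs among the diploids. Read counts were normalised to the haploid input and turned into Kd by a linear fit to BCL2-family pairs of known affinity, for each replicate. Mating was done six times.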

The variants keep the light chain, the linker and the frameworks of Ab-14 (scFv order VH, a 15-residue (Gly4Ser)3 linker, VL).
VH: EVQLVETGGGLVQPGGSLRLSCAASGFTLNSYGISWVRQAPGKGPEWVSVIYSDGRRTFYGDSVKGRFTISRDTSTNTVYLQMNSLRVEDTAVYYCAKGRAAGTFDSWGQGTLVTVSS
VL: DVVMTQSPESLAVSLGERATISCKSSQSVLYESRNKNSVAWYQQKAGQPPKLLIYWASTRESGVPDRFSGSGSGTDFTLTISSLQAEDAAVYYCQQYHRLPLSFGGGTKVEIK

Variants are written as CDR1, CDR2 and CDR3 of the heavy chain (limits as in the source). Parent: GFTLNSYGIS, VIYSDGRRTFYGDSVK, GRAAGTFDS.
Each Kd is an estimate from the mating assay, the geometric mean of the replicates in which the pair was seen; lower is stronger.
A pair that was not seen in any replicate is written "nd"; this usually means weak binding, but a binder can also be missed.
In the paper, a design with two or fewer of six values counts as a poor binder.

Result 2.9 nM (3 of 6 replicates; controls 0 of 18), variant GFDLNEYGIS / VIYADGRRTAYRDSVK / GTNAGTFDQ.
Result 48 nM (4 of 6 replicates; controls 0 of 18), variant GFTLNSYGIS / VIYSDGRRTFYIDDVK / GEAAGTFKS.
Result nd (0 of 6 replicates; controls 0 of 18), variant GFDLEEQGIS / VIYADGSRKAYAQDVK / GGHAVGFHV.
Result 1.5 nM (6 of 6 replicates; controls 1 of 18), variant KFDLNSYGIS / VIYSDGRRTFYADSVK / GREAGTFDS.
Result 630 pM (6 of 6 replicates; controls 0 of 18), variant GFDLNEYGIS / VIYADGMRTAYIDSVK / GNNAGTFDM.
Result 520 pM (6 of 6 replicates; controls 0 of 18), variant GFDLDEYGIS / VIYADGMRTAYADDVK / GGNAGTFDV.
Result 540 pM (6 of 6 replicates; controls 1 of 18), variant GFNLNSYGIS / VIYSDGRRTFYGDSVK / GNTAGTFDS.
Result 420 pM (6 of 6 replicates; controls 1 of 18), variant GFDLNEYGIS / VIYADGIRTAYADSVK / GNNAGTFDV.
Result nd (0 of 6 replicates; controls 0 of 18), variant GDSLNEYGIS / VIYADGSRSKYADKFK / GQVAGYFGV.
Result nd (0 of 6 replicates; controls 0 of 18), variant GFTCNSYGIS / VIYSDGRRTFYGDSVK / GRYDGTFDS.
Result nd (0 of 6 replicates; controls 0 of 18), variant GFDVNEYGIS / VIYADGRRTQYTQAVK / GKNNMVLFV.
Result nd (0 of 6 replicates; controls 0 of 18), variant GTTINSYGIS / VIYSDGRRTFYGDSVR / GRAAGTFDW.
Result 1.8 nM (6 of 6 replicates; controls 1 of 18), variant GFSLNSYGIS / VIYSDGKRTFYGDSVK / GSAAGTFDS.
Result nd (0 of 6 replicates; controls 0 of 18), variant GFNLDEYGIS / VIYADGMRTAYDSKVK / GQVWWNLLM.
Result nd (0 of 6 replicates; controls 0 of 18), variant GFNLNEYGIS / VIYADGQRTKYIDDVK / GTVRVLFMG.
Result 16 µM (1 of 6 replicates; controls 1 of 18), variant GFDLNEYGIS / VIYADGIRSRYANKVK / GNGAGTLDI.
Result 15 nM (6 of 6 replicates; controls 1 of 18), variant GFDLDEYGIS / VIYADGMRTAYTDSVK / GGNAGTFDL.
Result 60 pM (6 of 6 replicates; controls 0 of 18), variant GFDLDEYGIS / VIYADGQRTAYADSVK / GQNAGTFDL.
Result 170 nM (5 of 6 replicates; controls 0 of 18), variant GFTLNSYGIS / VIYSDGRRTFYGDSVK / GRLAGTFES.
Result 550 pM (6 of 6 replicates; controls 0 of 18), variant GFDLNEYGIS / VIYADGMRTSYADSVK / GGNAGTFDV.
Result nd (0 of 6 replicates; controls 0 of 18), variant GFTLNQYGIS / VIYSDGVRTFYSDSVK / GRAALFFDS.
Result 12 nM (6 of 6 replicates; controls 0 of 18), variant GFTLNEYGIS / VIYSDGRRTFYGDSVK / GKAAGTFDF.
Result nd (0 of 6 replicates; controls 0 of 18), variant SFTLNSYGIS / VIYADGRRTFYGDSVK / GRAAGTFKL.
Result 700 pM (6 of 6 replicates; controls 1 of 18), variant GFDLNEYGIS / VIYADGMRTFYADSVK / GNQAGTFDI.
Result 670 pM (6 of 6 replicates; controls 0 of 18), variant GFHLNEYGIS / VIYSDGRRTFYGDSVK / GRTAGTFDS.
Result 100 nM (1 of 6 replicates; controls 0 of 18), variant GFELQEYGIS / VIYADGMRTAYSDNVK / GDARGIFHV.
Result nd (0 of 6 replicates; controls 0 of 18), variant GFTLNSYGIS / VIYSDGRRKFYLDSVK / GRAAGPFDS.
Result 190 pM (6 of 6 replicates; controls 0 of 18), variant GFDLNEYGIS / VIYADGVRTAYTDDVK / GNVAGTFDV.
Result nd (0 of 6 replicates; controls 0 of 18), variant GDSLNEYGIS / VIYADGFRAAYTDKVK / GVTVGNFSS.
Result 140 nM (1 of 6 replicates; controls 0 of 18), variant GFTLNSYGIS / VIYSDGQRTFYSDSVK / GRAGGTFDS.
Result 2.0 nM (6 of 6 replicates; controls 1 of 18), variant GFGLNEYGIS / VIYSDGRRTFYGDSVK / GRNAGTFDS.
Result 2.1 nM (6 of 6 replicates; controls 1 of 18), variant GFDLNEYGIS / VIYADGSRTAYADSVK / GNQAGTFDM.
Result 3.2 nM (6 of 6 replicates; controls 1 of 18), variant GFELNSYGIS / VIYSDGRRTFYGDSVK / GITAGTFDL.
Result 7.5 nM (6 of 6 replicates; controls 0 of 18), variant GFTLNSYGIS / VIYRDGRRTFYGDSVK / GREAGTFFS.
Result 12 nM (1 of 6 replicates; controls 0 of 18), variant GFQLNSYGIS / VIYSDGRRTFYSDSVK / GKAGGTFDS.
Result nd (0 of 6 replicates; controls 0 of 18), variant GFHLASYGIS / VIYSDGRRTFYGDSVK / GRAAGRFDI.
Result 140 nM (3 of 6 replicates; controls 0 of 18), variant QFTLNSYGIS / VIYSDGRRTFYGDSVK / GELAGTFDS.
Result nd (0 of 6 replicates; controls 0 of 18), variant GFTLCQYGIS / VIYSIGRQTFYSDSVK / GRAYSFFDS.
Result 3.4 nM (6 of 6 replicates; controls 1 of 18), variant GFNLQEYGIS / VIYADGSRVVYQEKVK / GFDAGTFDT.
Result nd (0 of 6 replicates; controls 0 of 18), variant GNTIDEYGIS / VIYADGSRVAYDDKFK / GMLVGTFDQ.
Result nd (0 of 6 replicates; controls 0 of 18), variant GFTLNSYGIS / VIYSDGRRTFYGDSVR / QRAAGTFDS.
Result nd (0 of 6 replicates; controls 0 of 18), variant GFTLNEYGIS / VIYSDGRRTFYGDSVK / GRAALTFEL.
Result nd (0 of 6 replicates; controls 0 of 18), variant GFDINEYGVS / VIYADGMRAFYTDSVK / GKGAGIALE.
Result 1.2 µM (3 of 6 replicates; controls 0 of 18), variant YKSLNSYGIS / VIYSDGRRTAYGDSVK / GRTAGTFDS.
Result 180 pM (6 of 6 replicates; controls 0 of 18), variant GFTLNSYGIS / VIYADGRRTFYQDSVK / GREAGTFDS.
Result 4.3 nM (4 of 6 replicates; controls 0 of 18), variant GFHLNSYGIS / VIYSDGRRTFYADSVK / GKEAGTFDS.

Three control strains display no target. For all heavy chain designs, 1% of the pairings with them gave a signal, with a median of 120 nM and one signal in twenty below 7.0 nM, so weak values seen in few replicates may be background. Also given: how often the same scFv was detected with the empty control strains.
Values of this round are not directly comparable with the first-round values of the same sequences.